Legend:
Homo sapiens [1] = species: Homo sapiens; test: Selectivity ratio of Ki for human CA2 to Ki for human CA12
Homo sapiens [2] = species: Homo sapiens; test: Selectivity ratio of Ki for human CA2 to Ki for human CA9

Ratio IC50 (Homo sapiens [1]): 0.83
Ratio IC50 (Homo sapiens [2]): 1.84
Compound: COc1cccc(NC(=O)Nc2ccc(S(N)(=O)=O)cc2)c1
